Where a name gives a salt, the structure may show the parent alone.
Molecular target: CDK4 (Homo sapiens (Human), UniProt P11802)
Test: In vitro kinase inhibition, luminescence (ADP-Glo) with retinoblastoma substrate
Format: biochemical
Conditions: not given

Sequences of proteins named here, by UniProt entry; tags and fusion partners are left off. A change or cut given only in a name is not applied to a line headed by its entry.
UniProt P11802: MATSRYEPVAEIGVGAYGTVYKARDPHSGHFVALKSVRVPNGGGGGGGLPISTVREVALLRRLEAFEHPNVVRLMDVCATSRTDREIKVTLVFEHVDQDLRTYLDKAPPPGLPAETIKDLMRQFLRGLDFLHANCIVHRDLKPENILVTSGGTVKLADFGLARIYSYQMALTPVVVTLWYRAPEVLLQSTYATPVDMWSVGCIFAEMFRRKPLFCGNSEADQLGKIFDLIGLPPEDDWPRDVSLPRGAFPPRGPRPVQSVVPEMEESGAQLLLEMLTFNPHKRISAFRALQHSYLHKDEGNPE

SMILES | IC50 [nM]
CCN1CCN(Cc2ccc(Nc3ncc(F)c(-c4cc(F)c5c(c4)N(C(C)C)CCO5)n3)nc2)CC1 [Compound 4, N-(5-((4-ethylpiperazin-1-yl)methyl)pyridin-2-yl)-5-fluoro-4-(8-fluoro-4-isopropyl-3,4-dihydro-2H-benzo[b][1,4]oxazin-6-yl)pyrimidin-2-amine] | 0.7
CC(C)N1CCOc2c(F)cc(-c3nc(Nc4ccc(N5CCNCC5)cc4F)ncc3F)cc21 [Compound 11, 5-fluoro-N-(2-fluoro-4-(piperazin-1-yl)phenyl)-4-(8-fluoro-4-isopropyl-3,4-dihydro-2H-benzo[b][1,4]oxazin-6-yl)pyrimidin-2-amine] | 6
CC(C)N1CCOc2c(F)cc(-c3nc(Nc4ccc(N5CCNCC5)c(F)c4)ncc3F)cc21 [Compound 12, 5-fluoro-N-(3-fluoro-4-(piperazin-1-yl)phenyl)-4-(8-fluoro-4-isopropyl-3,4-dihydro-2H-benzo[b][1,4]oxazin-6-yl)pyrimidin-2-amine hydrochloride] | 12
CC(C)N1CCOc2c(F)cc(-c3nc(Nc4ccc(N5CCN(C)CC5)c(F)c4)ncc3F)cc21 [Compound 14, 5-fluoro-N-(3-fluoro-4-(4-methylpiperazin-1-yl)phenyl)-4-(8-fluoro-4-isopropyl-3,4-dihydro-2H-benzo[b][1,4]oxazin-6-yl) pyrimidin-2-amine] | 3.5
CC(C)N1CCOc2c(F)cc(-c3nc(Nc4cccc5c4CCNC5)ncc3F)cc21 [Compound 15, N-(5-fluoro-4-(8-fluoro-4-isopropyl-3,4-dihydro-2H-benzo[b][1,4]oxazin-6-yl)pyrimidin-2-yl)-1,2,3,4-tetrahydroisoquinolin-5-amine] | 37
CC(C)N1CCOc2c(F)cc(-c3nc(Nc4cnn(C5CCN(C)CC5)c4)ncc3F)cc21 [Compound 497, 5-fluoro-4-(8-fluoro-4-isopropyl-3,4-dihydro-2H-benzo[b][1,4]oxazin-6-yl)-N-(1-(1-methylpiperidin-4-yl)-1H-pyrazol-4-yl)pyrimidin-2-amine] | 6

Molecular target: CDK6 (Homo sapiens (Human), UniProt Q00534)
Test: biochemical
Format: biochemical
Conditions: not given

SMILES | IC50 [nM]
CC(C)N1CCOc2c(F)cc(-c3nc(Nc4ccc(N5CCN(C)CC5=O)cn4)ncc3F)cc21 [Compound 472, 1-(6-((5-fluoro-4-(8-fluoro-4-isopropyl-3,4-dihydro-2H-benzo[b][1,4]oxazin-6-yl)pyrimidin-2-yl)amino)pyridin-3-yl)-4-methylpiperazin-2-one] | 5

Same assay, conditions: read-out: CDK6 IC50

IC50 [nM] | SMILES
4 | CC(C)N1CCOc2c(F)cc(-c3nc(Nc4ccc(N5CCC(N(C)C)CC5)c(F)c4)ncc3F)cc21 [Compound 25, N-(4-(4-(dimethylamino)piperidin-1-yl)-3-fluorophenyl)-5-fluoro-4-(8-fluoro-4-isopropyl-3,4-dihydro-2H-benzo[b][1,4]oxazin-6-yl)pyrimidin-2-amine]
2 | CC(C)N1CCOc2c(F)cc(-c3nc(Nc4ccc(N5CCC(N(C)C)CC5)nc4)ncc3F)cc21 [Compound 38, N-(6-(4-(dimethylamino)piperidin-1-yl)pyridin-3-yl)-5-fluoro-4-(8-fluoro-4-isopropyl-3,4-dihydro-2H-benzo[b][1,4]oxazin-6-yl)pyrimidin-2-amine]
98 | CC(C)N1CCOc2c(F)cc(-c3nc(Nc4ccc(N5CCC(N(C)C)CC5)c(C(F)(F)F)c4)ncc3F)cc21 [Compound 178, N-(4-(4-(dimethylamino)piperidin-1-yl)-3-(trifluoromethyl)phenyl)-5-fluoro-4-(8-fluoro-4-isopropyl-3,4-dihydro-2H-benzo[b][1,4]oxazin-6-yl)pyrimidin-2-amine]
5 | CC(C)N1CCOc2c(F)cc(-c3nc(Nc4ccn(C5CCNCC5)c(=O)c4)ncc3F)cc21 [Compound 437, 4-((5-fluoro-4-(8-fluoro-4-isopropyl-3,4-dihydro-2H-benzo[b][1,4]oxazin-6-yl)pyrimidin-2-yl)amino)-1-(piperidin-4-yl)pyridin-2(1H)-one]
200 | CC(C)N1CCOc2c(F)cc(-c3nc(Nc4ccc(N5CCSCC5)c(F)c4)ncc3F)cc21 [Compound 469, 5-fluoro-4-(8-fluoro-4-isopropyl-3,4-dihydro-2H-benzo[b][1,4]oxazin-6-yl)-N-(3-fluoro-4-thiomorpholinophenyl)pyrimidin-2-amine]
105 | CC(C)N1CCOc2c(F)cc(-c3nc(Nc4ccc(N5CCN6CCCC6C5)c(F)c4)ncc3F)cc21 (stereo not shown) [Compound 473, 5-fluoro-N-(3-fluoro-4-(hexahydropyrrolo[1,2-a]pyrazin-2(1H)-yl)phenyl)-4-(8-fluoro-4-isopropyl-3,4-dihydro-2H-benzo[b][1,4]oxazin-6-yl)pyrimidin-2-amine]
4.5 | CC(=O)N1CCN(c2ccc(Nc3ncc(F)c(-c4cc(F)c5c(c4)N(C(C)C)CCO5)n3)nc2)CC1 [Compound 474, 1-(4-(6-((5-fluoro-4-(8-fluoro-4-isopropyl-3,4-dihydro-2H-benzo[b][1,4]oxazin-6-yl)pyrimidin-2-yl)amino)pyridin-3-yl)piperazin-1-yl)ethan-1-one]
4 | CC(C)N1CCOc2c(F)cc(-c3nc(Nc4ccc5c(n4)CCNC5)ncc3F)cc21 [Compound 481, N-(5-fluoro-4-(8-fluoro-4-isopropyl-3,4-dihydro-2H-benzo[b][1,4]oxazin-6-yl)pyrimidin-2-yl)-5,6,7,8-tetrahydro-1,6-naphthyridin-2-amine]
93 | CC(C)N1CCOc2c(F)cc(-c3nc(Nc4ccc(N5CCC(C)(O)CC5)cn4)ncc3F)cc21 [Compound 484, 1-(6-((5-fluoro-4-(8-fluoro-4-isopropyl-3,4-dihydro-2H-benzo[b][1,4]oxazin-6-yl)pyrimidin-2-yl)amino)pyridin-3-yl)-4-methylpiperidin-4-ol]
31 | CC(C)N1CCOc2c(F)cc(-c3nc(Nc4ccc(N5CCC(CCO)CC5)cn4)ncc3F)cc21 [Compound 491, 2-(1-(6-((5-fluoro-4-(8-fluoro-4-isopropyl-3,4-dihydro-2H-benzo[b][1,4]oxazin-6-yl)pyrimidin-2-yl)amino)pyridin-3-yl)piperidin-4-yl)ethan-1-ol]
16 | CC1CN(C(=O)c2ccc(Nc3ncc(F)c(-c4cc(F)c5c(c4)N(C(C)C)CCO5)n3)nc2)CC(C)O1 (stereo not shown) [Compound 511, (2,6-dimethylmorpholino)(6-((5-fluoro-4-(8-fluoro-4-isopropyl-3,4-dihydro-2H-benzo[b][1,4]oxazin-6-yl)pyrimidin-2-yl)amino)pyridin-3-yl)methanone]

Continued, compound first:

SMILES | IC50 [nM]
CC(C)N1CCOc2c(F)cc(-c3nc(Nc4ccc(N5CCNCC5)cc4F)ncc3F)cc21 [Compound 11, 5-fluoro-N-(2-fluoro-4-(piperazin-1-yl)phenyl)-4-(8-fluoro-4-isopropyl-3,4-dihydro-2H-benzo[b][1,4]oxazin-6-yl)pyrimidin-2-amine] | 8
CC(C)N1CCOc2c(F)cc(-c3nc(Nc4ccc(N5CCNCC5)c(F)c4)ncc3F)cc21 [Compound 12, 5-fluoro-N-(3-fluoro-4-(piperazin-1-yl)phenyl)-4-(8-fluoro-4-isopropyl-3,4-dihydro-2H-benzo[b][1,4]oxazin-6-yl)pyrimidin-2-amine hydrochloride] | 2
CC(C)N1CCOc2c(F)cc(-c3nc(Nc4ccc5c(c4)CCNC5)ncc3F)cc21 [Compound 13, N-(5-fluoro-4-(8-fluoro-4-isopropyl-3,4-dihydro-2H-benzo[b][1,4]oxazin-6-yl)pyrimidin-2-yl)-1,2,3,4-tetrahydroisoquinolin-6-amine] | 1.5
CC(C)N1CCOc2c(F)cc(-c3nc(Nc4ccc(N5CCN(C)CC5)c(F)c4)ncc3F)cc21 [Compound 14, 5-fluoro-N-(3-fluoro-4-(4-methylpiperazin-1-yl)phenyl)-4-(8-fluoro-4-isopropyl-3,4-dihydro-2H-benzo[b][1,4]oxazin-6-yl) pyrimidin-2-amine] | 2
CC(C)N1CCOc2c(F)cc(-c3nc(Nc4cccc5c4CCNC5)ncc3F)cc21 [Compound 15, N-(5-fluoro-4-(8-fluoro-4-isopropyl-3,4-dihydro-2H-benzo[b][1,4]oxazin-6-yl)pyrimidin-2-yl)-1,2,3,4-tetrahydroisoquinolin-5-amine] | 30
CC(C)N1CCN(c2ccc(Nc3ncc(F)c(-c4cc(F)c5c(c4)N(C(C)C)CCO5)n3)cc2F)CC1 [Compound 17, 5-fluoro-N-(3-fluoro-4-(4-isopropylpiperazin-1-yl)phenyl)-4-(8-fluoro-4-isopropyl-3,4-dihydro-2H-benzo[b][1,4]oxazin-6-yl)pyrimidin-2-amine] | 3.5
CC(C)N1CCOc2c(F)cc(-c3nc(Nc4cnn(C5CCNCC5)c4)ncc3F)cc21 [Compound 448, 5-fluoro-4-(8-fluoro-4-isopropyl-3,4-dihydro-2H-benzo[b][1,4]oxazin-6-yl)-N-(1-(piperidin-4-yl)-1H-pyrazol-4-yl)pyrimidin-2-amine] | 8.8
